Screening results (PubChem)
CDK5 p35 inh – CDK5/p35 (human) kinase inhibition | AID 488839 | Recombinant CDK5/p35, ADP-Glo luminescence, 60 min | inhibition, % at 10 µM | hit rate 0.01% among 330,000;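 active = highest replicate inhibition of at least 50% and at least 75% of replicates reaching 50%; inconclusive = only one of the two criteria met; inactive = both criteria failed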
dFosB act-1 – enhances mouse delta FosB homodimer DNA binding; P13346; purified delta FosB, TAMRA-CDK5 oligo fluorescence polarization; percent of positive-control signal above neutral wells; activation, % at 25 µM; hit rate 0.99% among 340,000; AID 493131;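 active = mean activation above about 17%, with every replicate also reaching it, limit read from the data, passing the limit was not always enough; inconclusive = only one of the two conditions met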
CAL PDZ FP-1 – inhibitors of human CAL PDZ peptide binding; hit rate 0.92% among 300,000; purified CAL PDZ, TMR-peptide fluorescence polarization, 1 h; inhibition, % at 24.9 µM; Q9HD26; AID 602252;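 active = mean inhibition of at least 30% with at least half of replicates also reaching 30%; inconclusive = no clear call, values can overlap the other calls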
Dyrk1A ADPGlo – Dyrk1A (rat) kinase inhibition. AID 504441. inhibition, % at 12.5 µM. hit rate 0.43% among 310,000. ADP-Glo luminescence, NFATc1 peptide; in the data active = inhibition above about 50%
CAL PDZ FP-2 – blocks peptide binding to human CAL PDZ domain; inhibition, % at 20 µM; Q9HD26; purified CAL PDZ, TMR-peptide fluorescence polarization, 1 h; hit rate 0.02% among 330,000;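 active = highest replicate inhibition of at least 40%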
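Control set: unlabelled peptide and DMSO controls / Material: purified CerCALP PDZ construct / Timing: 1 h incubation at room temperature before polarization reading / Doses: 20 µM, one dose / Detection: fluorescence polarization (mP)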
Yeast UUG start – alters start codon recognition fidelity in yeast | S. cerevisiae UUG-firefly luciferase reporter, luminescence/redox ratio | activity score, % at 18.7 µM | 350,000 compounds, 0.13% hits | AID 602363;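 active = replicate mean at a twofold rise or more, about +100% in these data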;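 note: firefly luciferase made from a UUG start codon reports start codon fidelity; reporter light over untreated wells divided by growth signal over untreated wells; some hits fall short of that in this replicate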
dFosB act-2 – activators of mouse delta FosB homodimer DNA binding. shares compounds with dFosB act-1. activation, % at 24.9 µM. purified delta FosB, TAMRA-CDK5 oligo fluorescence polarization; normalised: neutral wells 0, positive control 100. 2,400 tested, under 10 active;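 active = highest replicate activation at or above 34% and every replicate reaching that threshold; inconclusive = meets only one of the two criteria; inactive = meets neither criterion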;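 also: higher polarization means more probe DNA bound by delta FosB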
Numbers stand for hits; 0 = inactive; ? = inconclusive; - = no result. Hits are enriched below; roughly 1.7% of the tested compounds scored in any of these assays.

SMILES	CDK5 p35 inh	dFosB act-1	CAL PDZ FP-1	Dyrk1A ADPGlo	CAL PDZ FP-2	Yeast UUG start	dFosB act-2
C[C@@H]1CN([C@@H](C)CO)C(=O)c2cc(N(C)C)ccc2O[C@@H]1CN(C)Cc1ccc(C(=O)O)cc1	-	-	-	-	-	0	-
COc1ccccc1-c1ccc2c(c1)O[C@H](CN(C)C(C)=O)[C@H](C)CN([C@H](C)CO)S2(=O)=O	-	-	-	-	-	0	-
C[C@@H]1CN([C@@H](C)CO)S(=O)(=O)c2ccc(C3=CCCC3)cc2O[C@@H]1CN(C)Cc1cccnc1	-	-	-	-	-	0	-
CCOc1cc(/C=N\NC(=O)Cc2ccccc2)ccc1OCC(=O)Nc1ccc(C)c(C)c1	0	24	0	0	0	0	0
CCOc1cc(/C=N/NC(=O)Cn2nc([N+](=O)[O-])cc2C)ccc1OCc1ccc(F)cc1	0	35	0	0	0	0	0
O=C(Nc1cccc(NC(=O)c2ccc(Br)o2)n1)c1ccc(Br)o1	0	34	-	0	0	0	0
COc1cc(NC(=O)c2ccco2)c(C(=O)OCC(=O)c2c[nH]c3ccccc23)cc1OC	0	39	0	0	0	0	0
Nc1c(Cl)ncnc1N1CCCC1	0	0	-	0	0	-	-
NC(N)=NC(=O)c1nc(Cl)c(N2CCCCCC2)nc1N	0	26	0	0	0	0	0
N#C/C(=C(/O)c1ccc(Cl)c([N+](=O)[O-])c1)c1nc2ccccc2[nH]1	0	42	0	0	0	0	0
N#C/C(=C(/O)c1ccc([N+](=O)[O-])cc1)c1nc2ccccc2[nH]1	-	-	-	-	-	0	-
CCCNC(=O)N(C)C[C@@H]1Oc2cc(-c3ccccc3F)ccc2S(=O)(=O)N([C@@H](C)CO)C[C@@H]1C	-	-	-	-	-	0	-
C[C@H]1CCCCO[C@H](CN(C)C(=O)CCC(F)(F)F)[C@@H](C)CN([C@@H](C)CO)C(=O)c2cc(N(C)C)ccc2O1	-	-	-	-	-	0	-
COc1ccc(COc2cc(-c3cccc(OC)c3)nc3ccc(NC(=O)c4ccc(OC)cc4)cc23)cc1	0	?	0	0	0	0	-
COc1ccc(COc2cc(-c3cccc(OC)c3)nc3ccc(NC(=O)c4cccnc4)cc23)cc1	0	19	0	0	0	0	0
CCOc1cccc2sc(=NC(=O)c3ccco3)n(CC(=O)OC)c12	0	0	0	0	0	-	-
C#CCn1c(=NC(=O)c2ccco2)sc2cccc(Cl)c21	0	26	0	0	0	-	0
COCCNC(=O)C[C@H]1CC[C@H]2[C@H](COc3ccc(NC(C)=O)cc3C(=O)N2C)O1	-	-	-	-	-	0	-
CCOC(=O)CSc1nnc(NC(=O)c2ccc3c(c2)OCO3)s1	0	41	-	-	0	0	0
CCC(=O)Nc1nnc(SCC(=O)NCc2ccc3c(c2)OCO3)s1	0	23	0	0	0	0	0
C[C@@H]1CN([C@H](C)CO)C(=O)c2ccccc2-c2ccccc2CO[C@@H]1CN(C)S(=O)(=O)c1ccc(F)cc1	-	-	-	-	-	0	-
COc1ccc(N(CC(=O)N2CCc3ccccc32)S(=O)(=O)c2c(C)n[nH]c2C)cc1	0	36	0	0	0	0	0
COc1ccc(N(CC(=O)N2CCc3ccccc32)S(=O)(=O)c2c(C)nn(C)c2C)cc1	0	0	0	0	0	0	-
C[C@@H]1CN([C@H](C)CO)C(=O)c2cccc(NC(=O)c3ccc(-c4nccs4)cc3)c2O[C@H]1CN(C)C(=O)Nc1ccccc1	-	-	-	-	-	0	-
COc1ccc2cc(C(=O)Nc3ccc(O)cc3)sc(=O)c2c1OC	-	0	0	0	0	-	-
SMILES	CDK5 p35 inh	dFosB act-1	CAL PDZ FP-1	Dyrk1A ADPGlo	CAL PDZ FP-2	Yeast UUG start	dFosB act-2
COc1ccc2cc(C(=O)Nc3ccc(F)cc3)sc(=O)c2c1OC	0	34	0	0	0	0	0
COc1ccc2cc(C(=O)Nc3ccc(Cl)cc3)sc(=O)c2c1OC	0	71	0	0	0	-	0
C[C@H]1CN([C@@H](C)CO)C(=O)c2cc(C#CC3(O)CCCC3)cnc2O[C@@H]1CN(C)C(=O)CC1CC1	-	-	-	-	-	0	-
CCOC(=O)Cn1c(=NC(=O)c2sc3ccccc3c2Cl)sc2cc(S(N)(=O)=O)ccc21	0	92	0	0	0	0	0
CC(=O)Nc1ccc(NC(=O)C(C)OC(=O)c2cccc(S(=O)(=O)N3CCCCC3)c2)cc1 (configuration not stated)	0	32	-	-	0	0	0
O=C1c2ccccc2C(=O)N1CCN1CCCCC1	0	0	0	0	0	-	-
Nc1cc2c3c(cccc3c1)C(=O)N(CCN1CCCC1)C2=O	0	57	0	0	0	0	0
CCN(CC)CCN1C(=O)c2cccc3cc(N)cc(c23)C1=O	0	24	0	0	-	0	0
NC(=O)CN1CCN(CCN2C(=O)c3cccc4cccc(c34)C2=O)CC1	0	24	0	0	0	0	0
CCNC(=S)N1CCN(CCN2C(=O)c3cccc4cccc(c34)C2=O)CC1	0	0	0	-	0	0	-
CNC[C@@H]1Oc2ccc(NS(=O)(=O)c3cccs3)cc2C(=O)N([C@@H](C)CO)C[C@H]1C	-	-	-	-	-	0	-
COc1cc2c(cc1OC)-c1cc(Nc3ccccc3C)nc(=O)n1CC2	0	0	0	0	0	0	-
COc1cc2c(cc1OC)-c1cc(Nc3cccc(C)c3)nc(=O)n1CC2	0	30	0	0	0	0	0
CC(C)(C)c1ccc(C(=O)Cn2nc(C(=O)O)c3ccccc3c2=O)cc1	0	29	0	0	0	-	0
Clc1ccc2[nH]c3c(NCCCN4CCOCC4)ncnc3c2c1	0	22	0	0	0	0	0
Cc1ccc2[nH]c3c(NCCN4CCOCC4)ncnc3c2c1	0	0	0	0	0	0	-
O=C(NCCC1=CCCCC1)c1cc(S(=O)(=O)N2CCOCC2)c(Cl)cc1Cl	0	19	0	0	0	0	0
CN(C)NC(=O)c1ccsc1NC(=O)c1ccc(S(=O)(=O)N2CCCC2)cc1	0	0	0	0	0	0	-
CC1CCN(S(=O)(=O)c2ccc(C(=O)Nc3sccc3C(N)=O)cc2)CC1	0	53	-	0	0	0	0
Cc1ccc(OCCCCCCN2CCNCC2)c(Br)c1	0	23	-	0	0	0	0
CC(=O)Nc1ccc(NC(=O)CSc2nnc(NC(=O)Cc3ccc(F)cc3)s2)cc1	0	24	0	0	0	0	0
CC(=O)Nc1ccc(NC(=O)CSc2nnc(NC(=O)C3CC3)s2)cc1	0	28	0	0	0	0	0
CCC(C)C(=O)Nc1nnc(SCC(=O)Nc2ccc(F)cc2)s1 (configuration not stated)	0	0	0	0	0	-	-
O=C(CSc1nnc(NC(=O)C2CC2)s1)Nc1ccccc1	0	25	0	0	0	0	0
O=C(CSc1nnc(NC(=O)C2CC2)s1)Nc1ccc(F)cc1	0	0	0	0	0	0	-
CNC[C@H]1Oc2ccc(NS(=O)(=O)c3cccs3)cc2CC(=O)N([C@@H](C)CO)C[C@@H]1C	-	-	-	-	-	0	-
